# Reference: patent publication US20100179118A1, “CYCLIC AMINOALKYLCARBOXAMIDE DERIVATIVE” (DAINIPPON SUMITOMO PHARMA CO., LTD., priority 2006, published 2010)
# Experiments:
# [1] = test system: TMA (trimellitic anhydride) repetitive application dermatitis model; assay: Suppressive action on TMA (trimellitic anhydride) repetitive application dermatitis model; format: in vivo; details: dose 20 mg/kg, oral twice (30 min before and 4 hr after induction); ear thickness vs solvent control; male BALB/c mice
# [2] = test system: BN rat DNCB repetitive application dermatitis model; assay: Suppressive action on BN rat DNCB repetitive application dermatitis model; details: oral once a day, AUC of ear thickness increase vs solvent control, male BN rat
# Procedure: Suppressive Action on BN Rat DNCB Repetitive Application Dermatitis Model
# A 8-week-old male rat was sensitized by applying 30 μL of 1.5 wt % solution of dinitrochlorobenzene (DNCB) dissolved in acetone:olive oil=4:1 solution to the right ear on day 1 and 3 days later. Starting from one week thereafter, the same solution was consecutively applied to the right ear every other day in total of 6 times, whereby chronic dermatitis was induced in which the skin thickness increases with time. As for the level of dermatitis, the thickness was measured with a dial gauge thickness before application of the solution, and expressed by the difference from the measured thickness of the right ear immediately before induction on day 1 of the induction. The drug was suspended in 0.5 wt % tragacanth, and orally administered once a day immediately before induction on day 1 of the induction and after 24 hr value measurement the next day. The changes in the ear tumentia with time were monitored, and the area under the curve in a graph showing the values up to 48 hr after the final induction was calculated, from which the percent suppression relative to the area of the solvent control group was determined. As a comparison control compound, prednisolone, which is a steroid, was used.
compound,measurement,setting,value
O=C(CN1CCCCC1)N(c1ccccc1)C1CCN(C(=O)C2(c3ccc(Cl)cc3)CCCC2)CC1,right ear suppression (%) at 8 hr after final induction,[1],48.7%
same,suppression (%) at 48 hr after final induction,[2]; dose 2 mg/kg,25.5%
same,suppression (%) at 48 hr after final induction,[2]; dose 5 mg/kg,45.8%

# This is a selection: effects in other tests are not listed, and their absence says nothing.
